Results published in ChEMBL document CHEMBL1132449, “Pyrroloquinoxaline derivatives as high-affinity and selective 5-HT(3) receptor agonists: synthesis, further structure-activity relationships, and biological studies” (J Med Chem, 1999).

Target: T1, 5-hydroxytryptamine receptor 2C (Rattus norvegicus, UniProt P08909)
T1 sequence (P08909 whole entry): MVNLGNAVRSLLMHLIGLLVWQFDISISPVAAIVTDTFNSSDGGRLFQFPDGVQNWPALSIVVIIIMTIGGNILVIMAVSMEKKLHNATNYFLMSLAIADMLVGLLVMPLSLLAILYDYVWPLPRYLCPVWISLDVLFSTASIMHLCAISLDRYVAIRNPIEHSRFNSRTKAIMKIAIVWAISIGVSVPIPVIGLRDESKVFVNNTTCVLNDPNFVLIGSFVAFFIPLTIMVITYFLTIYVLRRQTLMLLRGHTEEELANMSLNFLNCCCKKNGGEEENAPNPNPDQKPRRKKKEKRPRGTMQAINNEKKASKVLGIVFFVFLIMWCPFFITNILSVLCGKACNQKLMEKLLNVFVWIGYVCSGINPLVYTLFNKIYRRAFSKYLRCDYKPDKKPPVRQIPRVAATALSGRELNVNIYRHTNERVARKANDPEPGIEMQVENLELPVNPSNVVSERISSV
Test: The compound was tested for the binding affinity against 5-hydroxytryptamine 2C receptor using [3H]Mesulergine as radioligand.

Structure (SMILES): CN1C[C@@H](NS(=O)(=O)N(C)C)C[C@@H]2c3cccc4c3c(cn4C)C[C@H]21 [MESULERGINE]
- Ki: 1.58 nM
